# Binding of CDR-mutated scFvs to a peptide of the spike HR2 region

The measurements come from Engelhart et al. 2022 (doi:10.1038/s41597-022-01779-4) through the FLAb antibody collection.

Target: peptide PDVDLGDISGINAS, taken from heptad repeat 2 (HR2) of SARS-CoV-2 spike.

Ab-14 is the parent antibody, in scFv form: VH, then a 15-residue (Gly4Ser)3 linker, then VL. The light chain is unchanged in all variants.
VH: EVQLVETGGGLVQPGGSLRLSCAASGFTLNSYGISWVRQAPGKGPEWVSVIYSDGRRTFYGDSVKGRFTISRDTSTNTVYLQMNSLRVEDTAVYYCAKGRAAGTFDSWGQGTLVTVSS
VL: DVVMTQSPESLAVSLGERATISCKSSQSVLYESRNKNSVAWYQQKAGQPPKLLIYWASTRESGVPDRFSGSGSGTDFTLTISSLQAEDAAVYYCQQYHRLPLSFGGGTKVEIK

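Phage display of a naive human antibody library on the peptide gave the parent. AAYL49 was designed without a model: most single CDR substitutions and a random sample of double and triple ones. Affinity was read by AlphaSeq, a pooled yeast mating assay with surface-displayed partners. Binding brings cells together so that they mate, and sequencing counts the barcode pairs among the diploids. The ratio of observed to expected reads was calibrated, replicate by replicate, on BCL2-family standards whose Kd was known from biolayer interferometry. There are three technical replicates.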

Changes read parent residue, position, new residue, counted from the first residue of the VH shown.
All variants listed here change V64 of the VH, counted from its first residue.
The Kd shown is the geometric mean over detected replicates; a lower Kd is a better binder.
"nd" means that the variant was in the library but no mating with the target was seen in any replicate; the authors take this as a sign of poor binding, and no number exists.
Three control strains display no target. For library AAYL49, 15% of the pairings with them gave a signal, with a median of 11 µM and one signal in twenty below 680 nM, so weak values seen in few replicates may be background. The control count says in how many pairings with the empty strains this scFv gave a signal.
For reference, the parent read 4.4 nM as the reference entry and 13 µM (one replicate of three) as a member of this library.

- V64F+R100N+G103A: 130 nM (3 of 3 replicates; controls 1 of 9)
- S35E+S53L+V64Q: 38 µM (3 of 3 replicates; controls 6 of 9)
- S35R+V64D+G103L: nd (0 of 3 replicates; controls 2 of 9)
- D62I+V64G: nd (0 of 3 replicates; controls 1 of 9)
- Y32W+V64R+K65H: 27 µM (1 of 3 replicates; controls 0 of 9)
- T28C+I51W+V64A: 25 µM (2 of 3 replicates; controls 1 of 9)
- Y52K+T58P+V64T: nd (0 of 3 replicates; controls 1 of 9)
- G61I+V64H: nd (0 of 3 replicates; controls 0 of 9)
- V64Y+A102K: 12 nM (3 of 3 replicates; controls 2 of 9)
- I34S+F59V+V64M: 43 µM (2 of 3 replicates; controls 3 of 9)
- Y52E+V64E+R100S: 31 µM (1 of 3 replicates; controls 0 of 9)
- V64T+R100W+A102P: nd (0 of 3 replicates; controls 0 of 9)
- T58P+V64P+T104A: nd (0 of 3 replicates; controls 0 of 9)
- G33L+V64R+T104H: 81 µM (1 of 3 replicates; controls 2 of 9)
- V50H+V64Q+S107W: nd (0 of 3 replicates; controls 1 of 9)
- R56G+V64K+S107V: 290 µM (1 of 3 replicates; controls 2 of 9)
- I51Q+T58A+V64Q: nd (0 of 3 replicates; controls 0 of 9)
- G33P+G61W+V64K: nd (0 of 3 replicates; controls 1 of 9)
- S35C+V64E+K65T: nd (0 of 3 replicates; controls 0 of 9)
- V64Y+G99E+F105S: 330 nM (3 of 3 replicates; controls 0 of 9)
- T28G+F59P+V64K: nd (0 of 3 replicates; controls 0 of 9)
- S31L+V64F: 40 nM (3 of 3 replicates; controls 1 of 9)
- N30P+R56H+V64F: 7.3 µM (3 of 3 replicates; controls 3 of 9)
- R57G+Y60F+V64D: 360 nM (1 of 3 replicates; controls 1 of 9)
- V50E+D54F+V64M: nd (0 of 3 replicates; controls 1 of 9)
- Y60L+V64M+A101C: 990 nM (3 of 3 replicates; controls 1 of 9)
- L29Q+Y32G+V64K: 420 µM (1 of 3 replicates; controls 2 of 9)
- D54G+R57L+V64E: 7.0 µM (1 of 3 replicates; controls 2 of 9)
- T58A+V64K+D106I: nd (0 of 3 replicates; controls 1 of 9)
- Y32P+I34T+V64K: nd (0 of 3 replicates; controls 2 of 9)
- R56P+Y60A+V64Q: nd (0 of 3 replicates; controls 0 of 9)
- F27H+T58I+V64Q: nd (0 of 3 replicates; controls 1 of 9)
- T58K+V64F+R100G: 75 nM (3 of 3 replicates; controls 0 of 9)
- F27L+I51K+V64N: 4.1 µM (2 of 3 replicates; controls 1 of 9)
- S53W+Y60V+V64N: 530 nM (1 of 3 replicates; controls 0 of 9)
- V64S+A101D+F105W: 95 µM (1 of 3 replicates; controls 1 of 9)
- L29N+I34P+V64H: 6.5 µM (1 of 3 replicates; controls 0 of 9)
- F59G+V64H+G99K: nd (0 of 3 replicates; controls 0 of 9)

The closing 3 entries, repeated:

- V64S+A101D+F105W -> 95 µM (1 of 3 replicates; controls 1 of 9)
- L29N+I34P+V64H -> 6.5 µM (1 of 3 replicates; controls 0 of 9)
- F59G+V64H+G99K -> nd (0 of 3 replicates; controls 0 of 9)